Species on record: Homo sapiens
Experiment: Selectivity index, ratio of IC50 of human PARP-1 to IC50 of human PARP-2

## Cn1cccc1/C=C1\C(=O)NC(=O)c2ccccc21
  Ratio IC50: 80

Source: ChEMBL document CHEMBL5252527, “An Update on Poly(ADP-ribose)polymerase-1 (PARP-1) Inhibitors: Opportunities and Challenges in Cancer Therapy” (J Med Chem, 2016)
